# pIC50: −log10 of the molar value.
# Key:
# [1] = molecular target: T1, HMG-CoA reductase (Homo sapiens, UniProt P04035); experiment: biochemical
# T1 sequence (P04035 340-888 limits assumed): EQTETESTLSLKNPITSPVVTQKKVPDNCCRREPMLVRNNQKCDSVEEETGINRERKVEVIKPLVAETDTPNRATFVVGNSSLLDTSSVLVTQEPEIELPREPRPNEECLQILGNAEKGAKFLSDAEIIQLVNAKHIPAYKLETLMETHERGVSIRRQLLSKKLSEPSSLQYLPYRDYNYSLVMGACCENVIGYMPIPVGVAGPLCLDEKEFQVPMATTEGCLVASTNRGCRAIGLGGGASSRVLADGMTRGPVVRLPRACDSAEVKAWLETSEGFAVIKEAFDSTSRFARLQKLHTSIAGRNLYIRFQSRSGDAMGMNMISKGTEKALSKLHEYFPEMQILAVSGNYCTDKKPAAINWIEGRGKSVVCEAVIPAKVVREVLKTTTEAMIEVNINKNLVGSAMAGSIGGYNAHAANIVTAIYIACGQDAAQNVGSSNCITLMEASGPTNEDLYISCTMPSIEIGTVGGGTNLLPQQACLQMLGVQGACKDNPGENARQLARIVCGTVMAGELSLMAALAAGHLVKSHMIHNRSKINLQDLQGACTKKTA
# [2] = molecular target: T1, HMG-CoA reductase; experiment: HMG-CoA Reductase assay kit (Sigma-Aldrich CS1090), decrease in absorbance at 340 nm of NADPH
SMILES,pIC50 [1],"pIC50 ([2]; read-out: IC50 (nm), Example 2)",pIC50 [2]
COC1C[C@H](OC(=O)c2cccnc2)C[C@@H](/C=C/c2c(-c3ccc(F)cc3)nc(N(C)S(C)(=O)=O)nc2C(C)C)O1 (some centres unmarked),> 9.00,–,–
C=CCOC1C[C@H](OCc2ccccc2)C[C@@H](/C=C/c2c(-c3ccc(F)cc3)nc(N(C)S(C)(=O)=O)nc2C(C)C)O1 (some centres unmarked) [drawing 226],–,8.52,–
C=CCOC1C[C@H](OCc2ccccc2)C[C@@H](/C=C/c2c(-c3ccc(F)cc3)nc(N(C)S(C)(=O)=O)nc2C(C)C)O1 (some centres unmarked) [drawing 221],8.52,–,–
"CC(C)c1nc(N(C)S(C)(=O)=O)nc(-c2ccc(F)cc2)c1/C=C/[C@@H](O)C[C@@H](O)CC(=O)O [Rosuvastatin, reference compound]",8.40,8.40,–
CC(C)c1nc(N(C)S(C)(=O)=O)nc(-c2ccc(F)cc2)c1/C=C/[C@@H]1C[C@@H](OCc2ccccc2)CC(OC(C)(C)C)O1 (some centres unmarked),–,–,8.40

# Other lines, results leading:
pIC50 [1],"pIC50 ([2]; read-out: IC50 (nm), Example 2)",pIC50 [2],SMILES
7.66,–,–,COC1C[C@H](OCc2ccccc2)C[C@@H](/C=C/c2c(-c3ccc(F)cc3)nc(N(C)S(C)(=O)=O)nc2C(C)C)O1 (some centres unmarked)
9.00,–,–,CC(C)OC1C[C@H](OCc2ccccc2)C[C@@H](/C=C/c2c(-c3ccc(F)cc3)nc(N(C)S(C)(=O)=O)nc2C(C)C)O1 (some centres unmarked)
